Laboratory results: ChEMBL document CHEMBL2163262 (J Med Chem, 2012)

Chains of the proteins cited; added tags and fusions are not shown. Lines headed by an entry give the natural chain unless they say otherwise; changes in a name come on top.
UniProt Q9Y5X5: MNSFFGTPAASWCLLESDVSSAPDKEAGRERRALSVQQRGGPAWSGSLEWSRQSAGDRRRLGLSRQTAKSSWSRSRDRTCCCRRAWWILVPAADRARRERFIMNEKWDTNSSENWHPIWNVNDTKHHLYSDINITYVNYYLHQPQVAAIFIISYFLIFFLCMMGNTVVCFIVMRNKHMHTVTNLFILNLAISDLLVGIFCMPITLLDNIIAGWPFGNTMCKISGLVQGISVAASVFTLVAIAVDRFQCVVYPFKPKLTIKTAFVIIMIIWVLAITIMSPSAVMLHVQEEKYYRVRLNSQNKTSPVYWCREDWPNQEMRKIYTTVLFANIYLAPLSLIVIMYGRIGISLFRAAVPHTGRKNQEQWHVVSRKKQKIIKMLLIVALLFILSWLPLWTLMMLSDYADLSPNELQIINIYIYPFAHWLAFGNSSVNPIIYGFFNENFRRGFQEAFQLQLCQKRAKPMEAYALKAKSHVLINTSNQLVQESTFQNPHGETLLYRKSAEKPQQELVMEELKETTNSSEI
UniProt Q9GZQ6, whole entry F311A: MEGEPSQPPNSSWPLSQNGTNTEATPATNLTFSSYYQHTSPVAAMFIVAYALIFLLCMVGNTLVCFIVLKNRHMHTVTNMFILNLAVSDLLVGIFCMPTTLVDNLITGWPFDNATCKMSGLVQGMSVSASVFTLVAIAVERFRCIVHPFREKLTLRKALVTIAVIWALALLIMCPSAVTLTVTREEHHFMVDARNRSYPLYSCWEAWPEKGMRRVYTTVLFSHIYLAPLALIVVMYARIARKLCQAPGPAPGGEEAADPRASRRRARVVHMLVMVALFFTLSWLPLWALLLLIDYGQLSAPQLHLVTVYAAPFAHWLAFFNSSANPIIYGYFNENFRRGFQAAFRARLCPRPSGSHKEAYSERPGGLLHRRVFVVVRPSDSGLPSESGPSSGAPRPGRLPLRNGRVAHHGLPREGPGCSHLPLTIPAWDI
UniProt Q9GZQ6, whole entry Y309A: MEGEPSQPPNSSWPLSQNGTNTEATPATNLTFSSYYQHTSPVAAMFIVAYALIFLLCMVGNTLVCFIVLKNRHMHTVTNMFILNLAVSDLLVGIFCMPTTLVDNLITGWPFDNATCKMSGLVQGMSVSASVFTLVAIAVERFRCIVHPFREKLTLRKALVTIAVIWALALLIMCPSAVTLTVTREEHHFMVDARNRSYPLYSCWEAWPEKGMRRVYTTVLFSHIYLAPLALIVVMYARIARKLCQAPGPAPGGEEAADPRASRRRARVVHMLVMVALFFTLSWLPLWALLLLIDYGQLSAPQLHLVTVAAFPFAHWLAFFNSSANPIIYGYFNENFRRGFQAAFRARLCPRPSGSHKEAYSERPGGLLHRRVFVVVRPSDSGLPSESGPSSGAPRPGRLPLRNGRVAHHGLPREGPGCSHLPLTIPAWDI
UniProt Q9GZQ6, whole entry H304A: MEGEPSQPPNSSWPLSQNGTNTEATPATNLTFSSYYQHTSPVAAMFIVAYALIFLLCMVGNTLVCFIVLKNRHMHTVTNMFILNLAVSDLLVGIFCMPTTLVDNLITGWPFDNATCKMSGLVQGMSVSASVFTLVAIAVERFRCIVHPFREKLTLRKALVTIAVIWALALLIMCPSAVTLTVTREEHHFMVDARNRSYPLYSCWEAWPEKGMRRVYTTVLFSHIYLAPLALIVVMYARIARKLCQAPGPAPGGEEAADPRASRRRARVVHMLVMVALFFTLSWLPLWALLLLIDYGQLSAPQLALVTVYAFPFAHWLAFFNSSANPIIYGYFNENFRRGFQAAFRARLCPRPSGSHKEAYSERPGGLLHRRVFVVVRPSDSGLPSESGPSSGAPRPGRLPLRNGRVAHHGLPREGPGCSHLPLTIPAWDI
UniProt Q9GZQ6, whole entry D294A: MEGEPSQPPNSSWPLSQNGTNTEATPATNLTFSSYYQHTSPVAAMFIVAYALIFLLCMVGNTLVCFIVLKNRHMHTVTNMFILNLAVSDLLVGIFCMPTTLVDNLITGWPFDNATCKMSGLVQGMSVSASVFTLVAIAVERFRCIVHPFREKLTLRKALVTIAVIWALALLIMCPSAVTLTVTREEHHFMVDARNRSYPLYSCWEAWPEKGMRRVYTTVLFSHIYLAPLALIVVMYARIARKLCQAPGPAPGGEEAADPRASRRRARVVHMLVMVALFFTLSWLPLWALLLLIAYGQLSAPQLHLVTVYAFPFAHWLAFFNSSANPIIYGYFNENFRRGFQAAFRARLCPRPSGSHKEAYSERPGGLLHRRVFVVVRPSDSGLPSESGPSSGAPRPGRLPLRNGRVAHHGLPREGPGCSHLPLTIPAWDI
UniProt Q9GZQ6, whole entry Y216A: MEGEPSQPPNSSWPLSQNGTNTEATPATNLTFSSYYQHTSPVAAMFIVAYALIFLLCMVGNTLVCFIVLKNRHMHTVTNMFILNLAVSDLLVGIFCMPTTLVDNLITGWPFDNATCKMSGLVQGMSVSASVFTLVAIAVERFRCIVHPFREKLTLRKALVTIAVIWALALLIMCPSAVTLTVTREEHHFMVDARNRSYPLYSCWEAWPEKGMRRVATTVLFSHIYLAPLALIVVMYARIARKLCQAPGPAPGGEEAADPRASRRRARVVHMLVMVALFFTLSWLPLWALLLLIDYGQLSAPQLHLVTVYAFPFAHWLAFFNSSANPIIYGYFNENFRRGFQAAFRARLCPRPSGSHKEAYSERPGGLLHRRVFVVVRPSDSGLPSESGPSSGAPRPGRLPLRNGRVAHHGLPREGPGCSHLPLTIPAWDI
UniProt Q9GZQ6, whole entry E205A: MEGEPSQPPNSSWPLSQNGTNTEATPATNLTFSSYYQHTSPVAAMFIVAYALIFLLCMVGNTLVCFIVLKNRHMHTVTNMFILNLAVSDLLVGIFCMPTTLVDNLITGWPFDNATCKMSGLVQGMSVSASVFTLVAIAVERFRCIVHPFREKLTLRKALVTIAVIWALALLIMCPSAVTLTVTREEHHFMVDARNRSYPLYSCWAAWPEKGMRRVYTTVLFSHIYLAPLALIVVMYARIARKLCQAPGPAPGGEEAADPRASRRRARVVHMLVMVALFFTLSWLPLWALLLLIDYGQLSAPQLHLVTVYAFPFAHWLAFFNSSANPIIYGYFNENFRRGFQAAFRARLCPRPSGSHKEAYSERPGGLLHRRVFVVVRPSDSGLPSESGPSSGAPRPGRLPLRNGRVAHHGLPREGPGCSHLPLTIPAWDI

How the values were obtained:
[1] = target: T1, Neuropeptide FF receptor 2 (Homo sapiens, UniProt Q9Y5X5); experiment: Agonist activity at human NPFF2 receptor expressed in COS1 cells assessed as [3H]inositol phosphate accumulation at 10 uM after 2 hrs by liquid scintillation counting relative to NPFF; format: functional, cell-based; settings: COS-1
[2] = target: T1, Neuropeptide FF receptor 2; experiment: Agonist activity at human NPFF2 receptor expressed in COS1 cells assessed as [3H]inositol phosphate accumulation after 2 hrs by liquid scintillation counting; format: functional, cell-based, COS-1
[3] = target: T2, Neuropeptide FF receptor 1 (Homo sapiens, UniProt Q9GZQ6); experiment: Partial agonist activity at human NPFF1 receptor expressed in COS1 cells assessed as [3H]inositol phosphate accumulation at 10 uM after 2 hrs by liquid scintillation counting relative to NPVF; format: functional, cell-based; settings: COS-1
[4] = target: Neuropeptide FF receptor 1 (Homo sapiens, UniProt Q9GZQ6, F311A); experiment: Agonist activity at human NPFF1 receptor F/Y7.35A mutant assessed as [3H]inositol phosphate accumulation after 2 hrs by liquid scintillation counting; format: functional
Method in brief: (§1)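 IP accumulation in COS-7 cells transiently cotransfected with human NPFFR (Ala point mutant or wt) plus chimeric G protein. Cells seeded at 60,000/well and grown to subconfluency. Compounds were dissolved in DMSO and diluted in DMEM with 10 mM LiCl (1% v/v DMSO final). Stimulation lasted 2 h.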

[5] = target: Neuropeptide FF receptor 1 (Homo sapiens, UniProt Q9GZQ6, Y309A); experiment: Agonist activity at human NPFF1 receptor Y7.33A mutant assessed as [3H]inositol phosphate accumulation after 2 hrs by liquid scintillation counting; format: functional; method in brief: as §1
[6] = target: Neuropeptide FF receptor 1 (Homo sapiens, UniProt Q9GZQ6, H304A); experiment: Agonist activity at human NPFF1 receptor H/Q6.69A mutant assessed as [3H]inositol phosphate accumulation after 2 hrs by liquid scintillation counting; format: functional
[7] = target: Neuropeptide FF receptor 1 (Homo sapiens, UniProt Q9GZQ6, D294A); experiment: Agonist activity at human NPFF1 receptor D6.59A mutant assessed as [3H]inositol phosphate accumulation after 2 hrs by liquid scintillation counting; format: functional; method in brief: as §1
[8] = target: Neuropeptide FF receptor 1 (Homo sapiens, UniProt Q9GZQ6, Y216A); experiment: Agonist activity at human NPFF1 receptor Y5.38A mutant assessed as [3H]inositol phosphate accumulation after 2 hrs by liquid scintillation counting; format: functional; method in brief: as §1
[9] = target: Neuropeptide FF receptor 1 (Homo sapiens, UniProt Q9GZQ6, E205A); experiment: Agonist activity at human NPFF1 receptor E5.27A mutant assessed as [3H]inositol phosphate accumulation after 2 hrs by liquid scintillation counting; format: functional; method in brief: as §1
[10] = target: T2, Neuropeptide FF receptor 1; experiment: Agonist activity at human NPFF1 receptor expressed in […] assessed as [3H]inositol phosphate accumulation after 2 hrs by liquid scintillation counting; format: functional, cell-based, COS-1; method in brief: as §1

Row | Emax [1] [%] | EC50 [2] [µM] | Emax [3] [%] | EC50 [4] [µM] | EC50 [5] [µM] | EC50 [6] [µM] | EC50 [7] [µM] | EC50 [8] [µM] | EC50 [9] [µM] | EC50 [10] [µM] | Structure (SMILES)
1 | 92 | 1.19 | 40 |  |  |  |  |  |  |  | N=C(N)N/N=C/c1ccc(Cl)c(C(F)(F)F)c1
2 | 107 |  |  |  |  |  |  |  |  |  | N=C(N)N/N=C/c1ccc(Br)c(Br)c1
3 |  |  |  | 0.016 | 0.0049 | 0.0077 | 0.099 | 0.314 | 7.88 | 0.0017 | CC(C)C[C@H](NC(=O)[C@H](CC(N)=O)NC(=O)[C@@H]1CCCN1C(=O)[C@@H](N)C(C)C)C(=O)N1CCC[C@H]1C(=O)N[C@@H](CCC(N)=O)C(=O)N[C@@H](CCCNC(=N)N)C(=O)N[C@@H](Cc1ccccc1)C(N)=O
